# Measurements taken from PubChem BioAssay (NCI).
#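 Five concentrations, 48 hours, 96-well plates. GI50 = concentration required for 50% inhibition of growth. The concentration for full growth arrest is given as TGI.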
# How the values were obtained:
# Test in all cases: inhibition of tumour cell growth, NCI panel, 48 h
# OVCAR-3 ovarian = system: OVCAR-3 ovarian
# SK-OV-3 ovarian = system: SK-OV-3 ovarian
# UACC-62 melanoma = system: UACC-62 melanoma
# EKVX NSCLC = system: EKVX NSCLC
# HCT-15 colon = system: HCT-15 colon
# UO-31 renal = system: UO-31 renal
# IGROV1 ovarian = system: IGROV1 ovarian
# A549 NSCLC = system: A549 NSCLC
# HL-60(TB) leukemia = system: HL-60(TB) leukemia
# MDA-MB-231 breast = system: MDA-MB-231 breast
# RPMI-8226 leukemia = system: RPMI-8226 leukemia
# MDA-N = system: MDA-N
# NCI-H522 lung = system: NCI-H522 lung
# T-47D breast = system: T-47D breast
# SF-539 CNS = system: SF-539 CNS
# SN12C renal = system: SN12C renal
# SK-MEL-2 melanoma = system: SK-MEL-2 melanoma
# OVCAR-5 ovarian = system: OVCAR-5 ovarian
# UACC-257 melanoma = system: UACC-257 melanoma
# PC-3 prostate = system: PC-3 prostate
# SW-620 colon = system: SW-620 colon
# CAKI-1 renal = system: CAKI-1 renal
# SK-MEL-5 melanoma = system: SK-MEL-5 melanoma
# HT29 colon = system: HT29 colon
# MCF7 breast = system: MCF7 breast
# SF-268 CNS = system: SF-268 CNS
# SR leukemia = system: SR leukemia
# TK-10 renal = system: TK-10 renal
# LOX IMVI melanoma = system: LOX IMVI melanoma
# HOP-62 NSCLC = system: HOP-62 NSCLC
# SNB-19 CNS = system: SNB-19 CNS
# HCT-116 colon = system: HCT-116 colon
# HOP-92 NSCLC = system: HOP-92 NSCLC
# OVCAR-4 ovarian = system: OVCAR-4 ovarian
# SNB-75 CNS = system: SNB-75 CNS
# NCI-H226 lung = system: NCI-H226 lung
# COLO 205 colon = system: COLO 205 colon
# SF-295 CNS = system: SF-295 CNS
# NCI-H322M lung = system: NCI-H322M lung
# HCC-2998 colon = system: HCC-2998 colon
# KM12 colon = system: KM12 colon
# K-562 leukemia = system: K-562 leukemia
# M14 melanoma = system: M14 melanoma
# MOLT-4 leukemia = system: MOLT-4 leukemia
# NCI-H23 lung = system: NCI-H23 lung
# HS 578T breast = system: HS 578T breast
# ACHN renal = system: ACHN renal
# MDA-MB-435 = system: MDA-MB-435
# 786-0 renal = system: 786-0 renal
# BT-549 breast = system: BT-549 breast
# OVCAR-8 ovarian = system: OVCAR-8 ovarian
# CCRF-CEM leukemia = system: CCRF-CEM leukemia
# NCI-H460 lung = system: NCI-H460 lung
# SK-MEL-28 melanoma = system: SK-MEL-28 melanoma
# U251 CNS = system: U251 CNS
# NCI/ADR-RES ovarian = system: NCI/ADR-RES ovarian
# A498 renal = system: A498 renal
# DU-145 prostate = system: DU-145 prostate
# RXF 393 renal = system: RXF 393 renal
smiles,measurement,setting,value
CCP1(=O)N(CC(C)(C)C)C(c2ccccc2)CC(c2ccccc2)N1CC(C)(C)C (stereo not drawn),GI50,OVCAR-3 ovarian,4.12 µM
same,TGI,OVCAR-3 ovarian,14.8 µM
same,GI50,SK-OV-3 ovarian,6.43 µM
same,TGI,SK-OV-3 ovarian,19 µM
same,GI50,UACC-62 melanoma,2850 nM
same,TGI,UACC-62 melanoma,7.42 µM
same,GI50,EKVX NSCLC,3.74 µM
same,TGI,EKVX NSCLC,10.2 µM
same,GI50,HCT-15 colon,2030 nM
same,TGI,HCT-15 colon,4.89 µM
same,GI50,UO-31 renal,1940 nM
same,TGI,UO-31 renal,4.33 µM
same,GI50,IGROV1 ovarian,1670 nM
same,TGI,IGROV1 ovarian,3.19 µM
same,GI50,A549 NSCLC,1770 nM
same,TGI,A549 NSCLC,4.2 µM
same,GI50,HL-60(TB) leukemia,1880 nM
same,TGI,HL-60(TB) leukemia,4.07 µM
same,GI50,MDA-MB-231 breast,1740 nM
same,TGI,MDA-MB-231 breast,3.42 µM
same,GI50,RPMI-8226 leukemia,1700 nM
same,TGI,RPMI-8226 leukemia,6.28 µM
same,GI50,MDA-N,3.22 µM
same,TGI,MDA-N,8.05 µM
same,GI50,NCI-H522 lung,2100 nM
same,TGI,NCI-H522 lung,5.52 µM
same,GI50,T-47D breast,2730 nM
same,TGI,T-47D breast,9.6 µM
same,GI50,SF-539 CNS,11.2 µM
same,TGI,SF-539 CNS,35.3 µM
same,GI50,SN12C renal,3.22 µM
same,TGI,SN12C renal,8.22 µM
same,GI50,SK-MEL-2 melanoma,2010 nM
same,TGI,SK-MEL-2 melanoma,3.84 µM
same,GI50,OVCAR-5 ovarian,3.68 µM
same,TGI,OVCAR-5 ovarian,9.38 µM
same,GI50,UACC-257 melanoma,3.9 µM
same,TGI,UACC-257 melanoma,10.6 µM
same,GI50,PC-3 prostate,1800 nM
same,TGI,PC-3 prostate,3.55 µM
same,GI50,SW-620 colon,4.47 µM
same,TGI,SW-620 colon,17.6 µM
same,GI50,CAKI-1 renal,2230 nM
same,TGI,CAKI-1 renal,7.78 µM
same,GI50,SK-MEL-5 melanoma,2840 nM
same,TGI,SK-MEL-5 melanoma,7.83 µM
same,GI50,HT29 colon,2890 nM
same,TGI,HT29 colon,7.78 µM
same,GI50,MCF7 breast,1920 nM
same,TGI,MCF7 breast,4.59 µM
same,GI50,SF-268 CNS,4.03 µM
same,TGI,SF-268 CNS,8.66 µM
same,GI50,SR leukemia,2650 nM
same,TGI,SR leukemia,8.57 µM
same,GI50,TK-10 renal,4.99 µM
same,TGI,TK-10 renal,15.2 µM
same,GI50,LOX IMVI melanoma,2390 nM
same,TGI,LOX IMVI melanoma,6.56 µM
same,GI50,HOP-62 NSCLC,4.24 µM
same,TGI,HOP-62 NSCLC,9.19 µM
same,GI50,SNB-19 CNS,1820 nM
same,TGI,SNB-19 CNS,3.55 µM
same,GI50,HCT-116 colon,1900 nM
same,TGI,HCT-116 colon,4.99 µM
same,GI50,HOP-92 NSCLC,2740 nM
same,TGI,HOP-92 NSCLC,7.78 µM
same,GI50,OVCAR-4 ovarian,1490 nM
same,TGI,OVCAR-4 ovarian,3.88 µM
same,GI50,SNB-75 CNS,3.03 µM
same,TGI,SNB-75 CNS,9.22 µM
same,GI50,NCI-H226 lung,4.26 µM
same,TGI,NCI-H226 lung,10.8 µM
same,GI50,COLO 205 colon,3.11 µM
same,TGI,COLO 205 colon,7.86 µM
same,GI50,SF-295 CNS,3.07 µM
same,TGI,SF-295 CNS,7.64 µM
same,GI50,NCI-H322M lung,3.2 µM
same,TGI,NCI-H322M lung,8.85 µM
same,GI50,HCC-2998 colon,3.68 µM
same,TGI,HCC-2998 colon,9.22 µM
same,GI50,KM12 colon,1890 nM
same,TGI,KM12 colon,4.67 µM
same,GI50,K-562 leukemia,2780 nM
same,TGI,K-562 leukemia,21.2 µM
same,GI50,M14 melanoma,2120 nM
same,TGI,M14 melanoma,4.92 µM
same,GI50,MOLT-4 leukemia,2540 nM
same,TGI,MOLT-4 leukemia,6.61 µM
same,GI50,NCI-H23 lung,1490 nM
same,TGI,NCI-H23 lung,3.6 µM
same,GI50,HS 578T breast,2360 nM
same,TGI,HS 578T breast,7.08 µM
same,GI50,ACHN renal,2460 nM
same,TGI,ACHN renal,6.11 µM
same,GI50,MDA-MB-435,2340 nM
same,TGI,MDA-MB-435,5.89 µM
same,GI50,786-0 renal,3.09 µM
same,TGI,786-0 renal,8.28 µM
same,GI50,BT-549 breast,1800 nM
same,TGI,BT-549 breast,3.23 µM
same,GI50,OVCAR-8 ovarian,2850 nM
same,TGI,OVCAR-8 ovarian,7.77 µM
same,GI50,CCRF-CEM leukemia,2010 nM
same,TGI,CCRF-CEM leukemia,4.73 µM
same,GI50,NCI-H460 lung,5.09 µM
same,TGI,NCI-H460 lung,20.2 µM
same,GI50,SK-MEL-28 melanoma,1950 nM
same,TGI,SK-MEL-28 melanoma,3.9 µM
same,GI50,U251 CNS,1740 nM
same,TGI,U251 CNS,3.16 µM
same,GI50,NCI/ADR-RES ovarian,1920 nM
same,TGI,NCI/ADR-RES ovarian,4.09 µM
same,GI50,A498 renal,2170 nM
same,TGI,A498 renal,4.89 µM
same,GI50,DU-145 prostate,3.46 µM
same,TGI,DU-145 prostate,7.87 µM
same,GI50,RXF 393 renal,2460 nM
same,TGI,RXF 393 renal,7.12 µM
